The values below come from PubChem BioAssay AID651636 (Sanford-Burnham Center for Chemical Genomics, 2012).

The chains behind the UniProt entries cited, without tags or fusion partners.
UniProt P32249, whole entry: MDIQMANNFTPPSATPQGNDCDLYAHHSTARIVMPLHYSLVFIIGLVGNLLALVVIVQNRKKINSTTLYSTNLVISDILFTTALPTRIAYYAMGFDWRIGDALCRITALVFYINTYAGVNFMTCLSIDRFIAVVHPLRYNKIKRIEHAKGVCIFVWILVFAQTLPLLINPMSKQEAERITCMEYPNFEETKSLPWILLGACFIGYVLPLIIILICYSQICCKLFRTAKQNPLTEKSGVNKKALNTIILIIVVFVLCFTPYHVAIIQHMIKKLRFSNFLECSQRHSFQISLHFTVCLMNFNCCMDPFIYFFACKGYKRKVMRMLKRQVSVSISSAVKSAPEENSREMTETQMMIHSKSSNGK

This is a selection; strong and weak results do not stand in their true shares. Activity calls are given as the source filed them. Rule as the data show it: active = inhibition above about 38%; inactive = the rest.

The test addresses G-protein coupled receptor 183 (Homo sapiens) (UniProt P32249). In words: EBI2 receptor antagonists, beta-arrestin recruitment, primary screen, cell-based, luminescence, 7a,25-OHC stimulation, uHTS (AID 651636).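 Also: enzyme fragment complementation signal reports receptor beta-arrestin coupling in cells; 0% = agonist plus DMSO wells and 100% = wells without agonist.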 Conditions: 7a,25-OHC stimulated, at 5 µM, stronger effect = higher value.
What is called inhibition is the relative decrease from the control value, in per cent. With `CCC(=O)N(c1ccccc1)C1(COC)CCN(CCn2nnn(CC)c2=O)CC1`, the inhibition was inactive: 6.89%.
Under `CCC(=O)N(c1ccccc1)C1(COC)CCN(CCc2cccs2)CC1` stands inactive: 2.76%.
